scFv variants of Ab-14 (light chain) against a SARS-CoV-2 spike peptide

Reference: Engelhart et al. 2022, doi:10.1038/s41597-022-01779-4. File: FLAb, binding data.

Antigen: PDVDLGDISGINAS, a 14-residue peptide of the SARS-CoV-2 spike HR2 region.

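Variants in AAYL50 differ from the parent at up to three CDR positions; double and triple changes were sampled at random. In AlphaSeq, yeast of one mating type display the scFv and yeast of the other type display the target. Mating (16 h, 30 °C) was followed by selection of diploids and sequencing of their barcodes. A regression on co-assayed BCL2-family reference pairs converts the normalised counts of each replicate to an apparent Kd. Each pool was mated in three replicate cultures.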

Each scFv is VH, a 15-residue (Gly4Ser)3 linker, VL, as in the parent Ab-14, and differs from it in the CDRs of the light chain only.
VH: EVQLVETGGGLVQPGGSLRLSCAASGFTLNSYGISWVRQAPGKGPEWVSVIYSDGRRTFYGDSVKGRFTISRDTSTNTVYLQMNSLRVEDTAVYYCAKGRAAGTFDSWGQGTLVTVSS
VL: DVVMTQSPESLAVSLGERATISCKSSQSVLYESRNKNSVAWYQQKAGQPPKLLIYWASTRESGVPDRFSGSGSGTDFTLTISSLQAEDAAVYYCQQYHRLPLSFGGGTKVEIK

Each variant is given by its three light chain CDRs, as the data file delimits them; those of the parent are KSSQSVLYESRNKNSVA, WASTRES, QQYHRLPLS.
Every variant below is changed at R34 of the VL (sequential numbering).
The read-out is the apparent dissociation constant on a log10 scale (nM): the lower, the stronger.
A mean of the replicates is given; it leaves out those without a signal.
Where no diploid with the target was found in any replicate, the entry reads "nd": below detection, most likely a poor binder, though not proof of it.
Parent in this assay: reference entry 0.65, copy in this library 1.68.

CDR-L1,CDR-L2,CDR-L3,"mean, log10 nM",seen in,control signals
KSSQSVLYESHNKNSVA,RASTRGS,QQYHRLPLS,1.56,3 of 3,0 of 9
LSSQSVLYESMNKNSVA,WVSTRES,QQYHRLPLS,3.74,3 of 3,3 of 9
KSSQSHCYESHNKNSVA,WASTRES,QQYHRLPLS,1.47,3 of 3,0 of 9
KSSQSVLYESWNKNSHA,WASTRES,QQYHPLPLS,4.40,2 of 3,5 of 9
KSSQSVLYESTNKNSVA,WTSTRES,QQYHRLPRS,0.84,3 of 3,1 of 9
KPSQSVLYESMNKNNVA,WASTRES,QQYHRLPLS,2.05,3 of 3,1 of 9
KSSQSVLYESFNKPSVA,WASTRES,QMYHRLPLS,2.76,3 of 3,1 of 9
KSSQSVLYESWNKNSVA,WASTRES,QQYARLPLS,1.17,3 of 3,5 of 9
KSSQSVLYESFNKKSVA,WAMTRES,QQYHRLPLS,4.10,1 of 3,0 of 9
KSSQSVLYESANKNSMA,WASTRES,QQRHRLPLS,1.10,3 of 3,3 of 9
KQSQSVLYESWNKNSEA,WASTRES,QQYHRLPLS,nd,0 of 3,4 of 9
KSSQSVLYESENKNSVA,WNSTRLS,QQYHRLPLS,2.11,3 of 3,0 of 9
KCSQSVLYESWNKNDVA,WASTRES,QQYHRLPLS,4.52,2 of 3,0 of 9
KCSQSVLYESTNKNSVA,WASTRES,QQYHALPLS,0.44,3 of 3,1 of 9
KSSSSVLYESENKNSVA,WASTRES,TQYHRLPLS,nd,0 of 3,1 of 9
KSSQSVLYESNNKNSVW,WASTREF,QQYHRLPLS,nd,0 of 3,0 of 9
KSSQSVLHESTNKNSVH,WASTRES,QQYHRLPLS,3.91,1 of 3,0 of 9
KSSQSVLYESVNKNSVA,WASTRES,QQYHRPPLS,4.99,1 of 3,4 of 9
KSSQSVLYESFNKNSVA,WASTRGS,QQYHVLPLS,2.30,3 of 3,1 of 9
KDSQSVLYESFNKNSVA,WASTRES,QQYHRLPLS,2.60,3 of 3,1 of 9
KSSQSVLYESANKNSVA,WASTRES,TQYHMLPLS,1.36,3 of 3,3 of 9
KSSQKVLYESWNKNSVA,WASTEES,QQYHRLPLS,6.07,1 of 3,2 of 9
KSSQSVMYESCNKNSVA,WASTRES,QQYHRLPLE,1.71,3 of 3,0 of 9
KSKQSVLYESPNKNSVA,WASTRES,QQYHRFPLS,1.07,3 of 3,0 of 9
KSSQSVLYESVNKNQVA,WASTRES,QQYHRLPGS,nd,0 of 3,0 of 9
KSSQSVLYESHNKNSVA,WASTIES,QWYHRLPLS,4.85,2 of 3,6 of 9
KSSQSVLYESPNKSSVA,WASTRES,QQYHRLPLS,nd,0 of 3,1 of 9
KSSQSVLYESPNKNSVV,WASTRES,QRYHRLPLS,nd,0 of 3,1 of 9
KVSQSVLYESQNKNSVA,WASTRES,QQYHRLPLI,0.27,3 of 3,0 of 9
KSSQSVLYESMNKNSVA,WASTRES,QQYHRLPLS,0.21,3 of 3,6 of 9
KVSQSVLYESWNKNSVA,WASPRES,QQYHRLPLS,4.24,3 of 3,2 of 9
KISQSVLYESMNKNSVA,WASTRES,QQYHRLPTS,1.98,3 of 3,4 of 9
KSSQSVLYESINKNRVA,WASTRES,EQYHRLPLS,1.44,3 of 3,2 of 9
KSSDSVLYESNNKNSVA,WASTREQ,QQYHRLPLS,1.78,3 of 3,2 of 9
KSSQSVLYEYWNKNSMA,WASTRES,QQYHRLPLS,3.32,2 of 3,0 of 9
KSSQSVLYESHNKNSVA,WASTDES,QQYHRVPLS,4.93,1 of 3,3 of 9
KSSQSYLYESENKNSVA,WASTRES,QQYHRLPFS,1.52,3 of 3,8 of 9
KSSQSVLYESVNKNSVA,WALTRES,QQYCRLPLS,2.78,3 of 3,2 of 9
KSSQSVVYESGNKNSVA,WASTRES,QQYHRLILS,3.50,2 of 3,0 of 9
KSSQSVLYESFNKNKVA,WMSTRES,QQYHRLPLS,3.00,1 of 3,3 of 9
KSSQSVLYESYIKNSVA,WASTRES,QQYHRLPGS,1.46,3 of 3,5 of 9
KSSQSVLYESMNKNSVA,WASTIES,VQYHRLPLS,nd,0 of 3,0 of 9
KSSQSVLYESQNSNSVA,WASTRQS,QQYHRLPLS,0.60,3 of 3,3 of 9
KSSQSVLCELNNKNSVA,WASTRES,QQYHRLPLS,2.83,3 of 3,2 of 9
KSSQSVLYESKNDNSVA,WASTRES,QQYHRLYLS,nd,0 of 3,0 of 9
KSSQSVLYESGNKNSVA,WASTREC,GQYHRLPLS,3.38,3 of 3,3 of 9
KSSQSVLYCSYNWNSVA,WASTRES,QQYHRLPLS,nd,0 of 3,1 of 9
KSSQSVLYESSNKNSVA,WASKRES,QQYHRLPLS,0.59,3 of 3,1 of 9
KSSQSVLYESLNCNSVA,WASTRES,QQYHRLPLS,0.92,3 of 3,0 of 9
KSKQSVLYESQNKNSVA,WAPTRES,QQYHRLPLS,nd,0 of 3,1 of 9
KSWQSVLYESAIKNSVA,WASTRES,QQYHRLPLS,nd,0 of 3,0 of 9
KSSQSVLYESENKNSFA,WASTRES,QQYHRIPLS,nd,0 of 3,3 of 9
KSLQSVLYESANKNSVA,WASTRES,QQYHRLPLS,nd,0 of 3,0 of 9
KSSQYVLYESMNLNSVA,WASTRES,QQYHRLPLS,nd,0 of 3,0 of 9
KSSQSVLYESCNKNSVA,WASTRES,QVYHRLPLS,1.72,3 of 3,3 of 9
KSSQSVLYESNNTNSVA,WASTRDS,QQYHRLPLS,1.48,3 of 3,1 of 9
KSSQSVYYESSNKNSVA,WASTRES,QQTHRLPLS,1.63,3 of 3,2 of 9
KSSQSVLYESPNKNSVA,WASTTES,QQVHRLPLS,3.88,1 of 3,2 of 9
KSSQSVLYESCNKNSYA,WASTRES,QQYHRLPQS,4.31,2 of 3,5 of 9
KSSQSVLYESVNCNSVA,WASTRES,QQYSRLPLS,1.13,3 of 3,1 of 9
KASQSVFYESENKNSVA,WASTRES,QQYHRLPLS,0.49,3 of 3,6 of 9
KSSQSVLYEKVNKNSVA,WASTRES,GQYHRLPLS,2.66,3 of 3,2 of 9
KSWQSVLYESGNKNSVA,WASTRES,QQYHKLPLS,4.16,2 of 3,7 of 9

From the list, the first 8 with no signal in any replicate:

{"CDR-L1": "KQSQSVLYESWNKNSEA", "CDR-L2": "WASTRES", "CDR-L3": "QQYHRLPLS", "mean, log10 nM": "nd", "seen in": "0 of 3", "control signals": "4 of 9"}
{"CDR-L1": "KSSSSVLYESENKNSVA", "CDR-L2": "WASTRES", "CDR-L3": "TQYHRLPLS", "mean, log10 nM": "nd", "seen in": "0 of 3", "control signals": "1 of 9"}
{"CDR-L1": "KSSQSVLYESNNKNSVW", "CDR-L2": "WASTREF", "CDR-L3": "QQYHRLPLS", "mean, log10 nM": "nd", "seen in": "0 of 3", "control signals": "0 of 9"}
{"CDR-L1": "KSSQSVLYESVNKNQVA", "CDR-L2": "WASTRES", "CDR-L3": "QQYHRLPGS", "mean, log10 nM": "nd", "seen in": "0 of 3", "control signals": "0 of 9"}
{"CDR-L1": "KSSQSVLYESPNKSSVA", "CDR-L2": "WASTRES", "CDR-L3": "QQYHRLPLS", "mean, log10 nM": "nd", "seen in": "0 of 3", "control signals": "1 of 9"}
{"CDR-L1": "KSSQSVLYESPNKNSVV", "CDR-L2": "WASTRES", "CDR-L3": "QRYHRLPLS", "mean, log10 nM": "nd", "seen in": "0 of 3", "control signals": "1 of 9"}
{"CDR-L1": "KSSQSVLYESMNKNSVA", "CDR-L2": "WASTIES", "CDR-L3": "VQYHRLPLS", "mean, log10 nM": "nd", "seen in": "0 of 3", "control signals": "0 of 9"}
{"CDR-L1": "KSSQSVLYESKNDNSVA", "CDR-L2": "WASTRES", "CDR-L3": "QQYHRLYLS", "mean, log10 nM": "nd", "seen in": "0 of 3", "control signals": "0 of 9"}

Nonspecific signal, from three strains lacking the peptide, appeared in 18% of pairings of library AAYL50, centred on 4.19 (5% of these signals below 2.99); values are not corrected for it. For each scFv, signals with the empty controls are counted beside the result.